Laboratory results reported in patent US20110038920A1, “WOUND HEALING COMPOSITIONS AND TREATMENTS” (priority 2008, published 2011).

System: OPN expression in Swiss 3T3 fibroblasts
Assay: Induction of OPN expression in fibroblasts by growth factors/cytokines (Western blot)
Format: cell-based
Settings: 8 h; PDGF-BB 20, EGF 100, TGFβ1 10, TGFβ3 10, IL-6 50, TNFα 10 ng/ml

TNF-α: cytokine, BioSource
ability to upregulate OPN expression in Swiss 3T3s: not
